Here are results for two compounds from PubChem BioAssay AID493221 (Johns Hopkins Ion Channel Center, 2011).

Protein sequences, listed by entry. Tags and fused reporters are not part of them. Lines headed by an entry give the natural chain unless they say otherwise; changes in a name come on top.
UniProt Q9GZV3: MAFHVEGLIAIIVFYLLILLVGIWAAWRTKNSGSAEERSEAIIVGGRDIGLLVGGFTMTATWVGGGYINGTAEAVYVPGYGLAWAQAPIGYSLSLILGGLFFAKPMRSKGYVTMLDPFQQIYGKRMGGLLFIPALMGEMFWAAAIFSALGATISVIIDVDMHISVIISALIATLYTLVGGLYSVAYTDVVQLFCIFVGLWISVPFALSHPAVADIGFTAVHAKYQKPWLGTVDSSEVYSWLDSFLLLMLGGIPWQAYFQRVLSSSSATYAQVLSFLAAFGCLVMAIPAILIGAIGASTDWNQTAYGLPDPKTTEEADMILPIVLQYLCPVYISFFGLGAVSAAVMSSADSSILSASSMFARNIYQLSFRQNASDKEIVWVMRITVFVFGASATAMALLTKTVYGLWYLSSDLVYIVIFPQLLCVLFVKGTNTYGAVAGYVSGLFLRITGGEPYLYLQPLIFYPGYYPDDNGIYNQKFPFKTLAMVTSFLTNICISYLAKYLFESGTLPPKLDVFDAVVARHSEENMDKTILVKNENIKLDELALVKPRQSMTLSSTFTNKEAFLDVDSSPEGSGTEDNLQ

This is a selection; strong and weak results do not stand in their true shares. Calls of active or inactive are those of the source.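 The calls were made as follows: active = choline transporter activity left, mean of duplicates at 10 µM, below buffer-only control mean minus 3 SD; inactive = the rest.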

The assay concerns the target High affinity choline transporter 1 (Homo sapiens) (UniProt Q9GZV3). As to the kind of experiment: human choline transporter blockers – cell-based, membrane potential dye, duplicate, confirmation (AID 493221). Conditions: CHT-expressing cells, at 10 µM, LV-to-AA substituted CHT, HEK293 cells.
The inhibition is how much of the control response was suppressed. On to `CCc1nc2c(n1)c1c(non1O)c1c2no[n+]1[O-]`, for which the inhibition is active: 28.1%. Take `NC(=O)c1cc([N+](=O)[O-])cc([N+](=O)[O-])c1N`: the inhibition was inactive: 0%.
